## Binding of CDR-mutated scFvs to a peptide of the spike HR2 region

The measurements come from Engelhart et al. 2022 (doi:10.1038/s41597-022-01779-4) through the FLAb antibody collection.

Target peptide (SARS-CoV-2 spike, HR2 region): PDVDLGDISGINAS

Ab-91 is the parent antibody, in scFv form: VL, then a 15-residue (Gly4Ser)3 linker, then VH. The light chain is unchanged in all variants.
VL: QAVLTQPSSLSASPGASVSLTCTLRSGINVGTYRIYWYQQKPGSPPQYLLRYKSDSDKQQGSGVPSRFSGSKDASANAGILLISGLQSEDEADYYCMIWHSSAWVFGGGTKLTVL
VH: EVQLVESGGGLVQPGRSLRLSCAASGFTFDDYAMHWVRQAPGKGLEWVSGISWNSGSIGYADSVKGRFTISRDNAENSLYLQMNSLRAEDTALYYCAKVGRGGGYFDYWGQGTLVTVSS

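Phage display of a naive human antibody library on the peptide gave the parent. The library (AAYL51) carries one to three amino acid substitutions per variant, with no insertions or deletions. In AlphaSeq, yeast of one mating type display the scFv and yeast of the other type display the target. After mating in shaken culture at 30 °C for 16 h, diploids were selected and their barcode pairs sequenced. The ratio of observed to expected reads was calibrated, replicate by replicate, on BCL2-family standards whose Kd was known from biolayer interferometry. There are three technical replicates.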

Variants are written as CDR1, CDR2 and CDR3 of the heavy chain (limits as in the source). Parent: GFTFDDYAMH, GISWNSGSIGYADSVK, VGRGGGYFDY. Affinities are written as log10 Kd with Kd in nM; a lower number is a better binder. "n.d." marks a missing value. The strain was present, yet no cells mated with the target were sequenced in that replicate, which points to weak or no binding. As a blank, each scFv also met three strains without target: over library AAYL51, 21% of these pairings were detected, typically at 4.54 and seldom below 3.26. The control count says in how many pairings with the empty strains this scFv gave a signal, with their mean in brackets.

CDR-H1	CDR-H2	CDR-H3	log10 Kd, replicates	control signals
GFTFDDYLMH	GISWNSGSIGGADSVK	VGRGGGYYDY	4.25 / n.d. / n.d.	1 of 9 (3.04)
GFTFDDYAHC	GISWNSGSIGYADSMK	VGRGGGYFDY	n.d. / n.d. / n.d.	0 of 9
GFNFDSYAMY	GISWNSGSIGYADSVK	VGRGGGYFDY	5.07 / n.d. / 4.30	1 of 9 (4.51)
GATFRDYAMH	GISWNSGSIGYQDSVK	VGRGGGYFDY	n.d. / n.d. / n.d.	1 of 9 (3.33)
GFTFDFYAMH	GMSWNSGSIGYADKVK	VGRGGGYFDY	n.d. / n.d. / n.d.	0 of 9
GFTFDDTAMH	GISWNSGLIGYNDSVK	VGRGGGYFDY	4.00 / 4.03 / 4.73	3 of 9 (4.81)
GFTFDDYAMH	GISWNSGSKGYADSVK	VGRGGGYFDY	1.97 / 0.87 / 1.13	0 of 9
GFTFDSYAMH	GISWNSGSIGWADSVK	KGRGGGYFDY	3.43 / n.d. / n.d.	1 of 9 (3.28)
PFAFDDYAMH	GISWNSGSRGYADSVK	VGRGGGYFDY	n.d. / n.d. / n.d.	2 of 9 (4.35)
GFYFDDYAMH	GISWNSGSIGYADSVK	VGRGGGMFDM	1.63 / 1.33 / 1.15	0 of 9
GFTFDDYAMH	RMSWNSGSIIYADSVK	VGRGGGYFDY	5.13 / n.d. / n.d.	1 of 9 (3.05)
GFTFDDYAMH	GISWNSGSIGYQDSVK	VGRGGIFFDY	n.d. / n.d. / n.d.	0 of 9
GFTFDDYAMH	GASWTSGSIGYAMSVK	VGRGGGYFDY	3.74 / n.d. / n.d.	2 of 9 (3.78)
GFTFDDYAFH	GISWSSGSIGYADSVK	VGRGGGYFDY	n.d. / n.d. / n.d.	2 of 9 (4.32)
GFTADDYAMH	GISWNSGSIGQADSVK	VGRGGGYYDY	n.d. / n.d. / n.d.	0 of 9
WFTFDDYAMH	GISVNSGSIGYADSVK	VGRGLGYFDY	n.d. / n.d. / n.d.	0 of 9
GATFDDYAMH	GASWNSGSIGYADSVK	VIRGGGYFDY	n.d. / n.d. / n.d.	0 of 9
GFTFDDYAMH	GISWNSGSIAYADSVE	VGRGGGKFDY	4.19 / 4.11 / 3.96	7 of 9 (4.64)
GFTFDDYAMH	GISWNSTSIGYADSVK	VGRGWGYFDY	n.d. / 5.77 / n.d.	2 of 9 (4.45)
GFTFDDYAMH	GISWNSGSIGYADSVK	VGRQKGYFDY	n.d. / n.d. / n.d.	0 of 9
GFTFDDYAMH	GISWNSGSIGYADSRK	VGRGGGYFDK	4.76 / n.d. / n.d.	1 of 9 (2.88)
GFTFDDYARH	GISNNSCSIGYADSVK	VGRGGGYFDY	n.d. / n.d. / n.d.	2 of 9 (3.91)
GFTFDDIAMH	GISWNSGSIGNADSVK	LGRGGGYFDY	n.d. / n.d. / 4.79	1 of 9 (4.57)
GFTFDDEAMH	GFSWNSGSIGIADSVK	VGRGGGYFDY	n.d. / n.d. / n.d.	0 of 9
GFTFDDYAMH	GISWNSGSAGYMDSVK	VGRGGGAFDY	1.98 / 1.99 / 1.92	4 of 9 (3.94)
GFTFDDYAMH	GTSWNSGSIGYADSVK	HGRGGGYFDY	n.d. / n.d. / n.d.	0 of 9
GFQFDDYAMH	GISWNSGSIGLADSVK	VFRGGGYFDY	4.39 / n.d. / n.d.	0 of 9
RFTFCDYAMH	GISWNSGSIGYADSVK	VGRGGGYFDY	n.d. / n.d. / 4.16	0 of 9
GFTFDDYAMY	GISWNSGSIGEADSVK	VGRGYGYFDY	4.88 / n.d. / n.d.	0 of 9
GFTFDDYFMH	GISWNSGSIGYADSVK	VGRGGGYFDY	n.d. / n.d. / 3.90	2 of 9 (4.43)
NFTFDDYAMH	GISWNSGSPGYADSVK	VGRGGGYFDV	4.67 / 4.72 / n.d.	2 of 9 (4.49)
CFTFDYYAMH	GISWNMGSIGYADSVK	VGRGGGYFDY	n.d. / n.d. / 4.54	1 of 9 (4.56)
GFTFDDYAMK	GIRWNSGSHGYADSVK	VGRGGGYFDY	n.d. / n.d. / n.d.	1 of 9 (4.27)
GFTFDDYAMW	GISWNSGSIGYAQSVK	VGRGGGYFDY	n.d. / 7.01 / n.d.	5 of 9 (5.04)
GFTFDHYAMT	GISWNSGSIGWADSVK	VGRGGGYFDY	5.87 / 4.63 / 4.80	4 of 9 (4.60)
GFTFDDYAMH	IISWNSGSIGYADSVK	VGRGGGYFDY	n.d. / n.d. / n.d.	0 of 9
GFTFDDYHMH	GISWHSGSIGYADSVK	VGRGYGYFDY	n.d. / 3.90 / n.d.	0 of 9

In this assay the parent's reference entry averaged 1.86; its copy inside this library read 0.88.